Values quoted from earlier work in paper PMC10779535, “Design and Synthesis of D3R Bitopic Ligands with Flexible Secondary Binding Fragments: Radioligand Binding and Computational Chemistry Studies” (Molecules, 2023).

By UniProt entry, the sequences of proteins in these tests, tags left out. Where a name states a change or a piece, a line headed by the entry shows the natural chain unless it says otherwise.
UniProt P35462, whole entry: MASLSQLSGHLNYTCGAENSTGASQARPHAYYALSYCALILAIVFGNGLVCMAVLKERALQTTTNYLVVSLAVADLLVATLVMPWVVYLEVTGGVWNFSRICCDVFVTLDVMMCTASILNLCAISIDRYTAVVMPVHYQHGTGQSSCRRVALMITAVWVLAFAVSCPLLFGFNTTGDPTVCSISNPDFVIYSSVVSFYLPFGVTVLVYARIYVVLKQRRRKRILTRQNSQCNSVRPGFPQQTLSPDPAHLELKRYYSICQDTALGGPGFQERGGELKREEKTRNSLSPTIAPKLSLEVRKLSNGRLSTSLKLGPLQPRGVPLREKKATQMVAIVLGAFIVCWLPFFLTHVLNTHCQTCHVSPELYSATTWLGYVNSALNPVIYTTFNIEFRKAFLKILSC

Biological target: D3R (Homo sapiens, UniProt P35462)
Conditions: CJ-1882; cited from earlier work

Compound: CCCN(CCC1(O)CC(NC(=O)c2ccc3ccccc3c2)C1)C1CC1c1ccc(Cl)cc1 (stereo not shown) [CJ-1882]
- D3R/D2R, D3R versus D2R selectivity (fold): 223
